The values below come from US20230295259A1 (Protagonist Therapeutics, Inc., priority 2020, published 2023).

Read-outs that look alike come from different tables or passages of the source.

In the assay the target is T1, ferroportin (endogenously expressed in T47D cells) (Homo sapiens, UniProt Q9NP59).
T1 construct: is a human breast carcinoma adherent cell line which endogenously expresses ferroportin; host or cells: T47D
T1 sequence (Q9NP59 1-571): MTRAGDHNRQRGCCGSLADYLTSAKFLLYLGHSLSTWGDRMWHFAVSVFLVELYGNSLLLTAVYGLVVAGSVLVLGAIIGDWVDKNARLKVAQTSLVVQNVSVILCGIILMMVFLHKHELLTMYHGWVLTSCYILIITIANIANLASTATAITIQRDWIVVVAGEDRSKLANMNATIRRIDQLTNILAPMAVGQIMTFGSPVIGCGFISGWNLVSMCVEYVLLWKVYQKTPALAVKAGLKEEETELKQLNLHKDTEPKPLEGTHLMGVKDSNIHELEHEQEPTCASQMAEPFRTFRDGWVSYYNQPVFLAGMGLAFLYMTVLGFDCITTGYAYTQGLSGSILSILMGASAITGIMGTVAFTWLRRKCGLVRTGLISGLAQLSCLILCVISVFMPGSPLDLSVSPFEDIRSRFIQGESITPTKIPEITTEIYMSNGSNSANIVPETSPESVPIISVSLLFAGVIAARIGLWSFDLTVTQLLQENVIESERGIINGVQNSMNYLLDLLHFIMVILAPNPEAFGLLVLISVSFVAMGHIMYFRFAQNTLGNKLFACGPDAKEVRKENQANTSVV
Briefly: T47D cell-based ferroportin internalization assay in presence of 0.5% mouse serum albumin (AF647-conjugated detection peptide, flow cytometry). (In flow cytometry, cells or beads pass a laser one at a time.)

Where [1] appears, read: read-out: IC50: T47D Internalization MSA.
Setting [2] is: read-out: T47D IC50, Table 2C, class symbols.

Regarding “Acrylic_Acid-E-T-H-[Dpa]-P—C—I-[(D)Lys]-[bhPhe]-[Lys(Ahx_Palm)-[(D)Lys]-C—NH2 [Compound 284]”, the IC50 (usually the midpoint of a concentration-inhibition curve) under setting [1] is 13.5 nM.

For the substance “Isovaleric Acid-E-T-H-F-P—C—I-[Lys(1PEG2_1PEG2_IsoGlu_C18_Diacid)]-F-E-P—R—S—K—F—C—NH2 [Compound 209]”, under setting [1], the IC50 was determined as 222 nM.

With “Isovaleric Acid-E-T-H-F—P—C—I-[Lys(IsoGlu_Palm)]-F-E-P—R-S—K-G-C—NH2 [Compound 225]”, the concentration for half-maximal inhibition (IC50) under setting [1] worked out at 13.9 nM.

As for “Isovaleric Acid-E-T-H-[Dpa]-P-[(Me)Cys]-I-[(D)Lys]-[bhPhe]-[Lys(Ahx_Palm)]-[(D)Lys]-[Cys]-NH2 [Compound 81]”, the IC50 under setting [1] turned out to be 4.98 nM.

With “Isovaleric Acid-E-T-H-[Dpa]-P-[Cys]-I-[(D)Lys]-[(Me)Phe]-[Lys(Ahx_Palm)]-[(D)Lys]-[Cys]-NH2 [Compound 84]”, under setting [1], the 50% inhibitory concentration (IC50) was 1.48 nM.

For the substance “Isovaleric Acid-E-T-H-[Dpa]-P-[Cys]-I-[(D)Lys]-[bhPhe]-[(Me)Lys(Ahx_Palm)]-[(D)Lys]-[Cys]-NH2 [Compound 85]”, under setting [1], the IC50 came to 1.43 nM.

As for “Isovaleric Acid-E-T-H-[Dpa]-P-[Cys]-I-[(D)Lys]-[bhPhe]-[Lys(Ahx_Palm)]-[(D)Lys]-[(Me)Cys]-NH2 [Compound 87]”, under setting [1], the IC50 was 1.64 nM.

Take “Isovaleric Acid-E-T-H-[Dpa]-P-[Cys]-I-[(D)Lys]-[bhPhe]-[Lys(Ahx_Palm)]-[(Me)Lys]-[Cys]-NH2 [Compound 86]”: under setting [1], the IC50 came out at 1.73 nM.

For the substance “Isovaleric Acid-E-T-H-[Dpa]-P-[Cys]-I-[(Me)Lys]-[bhPhe]-[Lys(Ahx_Palm)]-[(D)Lys]-[Cys]-NH2 [Compound 83]”, the 50% inhibitory concentration (IC50) under setting [1] came out at 1.05 nM.

For the substance “Isovaleric Acid-E-T-H-[Dpa]-P-[Cys]-I-[Lys(2Peg4_Palm)]-[bhPhe]-[(D)Lys]-[Cys]-NH2 [Compound 39]”, under setting [1], the IC50 worked out at 1.5 nM.

As for “Isovaleric Acid-E-T-H-[Dpa]-P-[Cys]-I-[Lys(2Peg11′_IsoGlu_C14_Diacid)]-[bhPhe]-[(D)Lys]-[Cys]-NH2 [Compound 108]”, the IC50 under setting [1] was 228 nM.

Take “Isovaleric Acid-E-T-H-[Dpa]-P-[Cys]-I-[Lys(2Peg11′_IsoGlu_C18)]-[bhPhe]-[(D)Lys]-[Cys]-NH2 [Compound 112]”: the IC50 under setting [1] came out at 0.92 nM.

For the substance “Isovaleric Acid-E-T-H-[Dpa]-P-[Cys]-[(Me)Ile]-[(D)Lys]-[bhPhe]-[Lys(Ahx_Palm)]-[(D)Lys]-[Cys]-NH2 [Compound 82]”, under setting [1], the half-maximal inhibitory concentration (IC50) was 4.34 nM.

On to “Isovaleric Acid-E-T-H-[Dpa]-P—C—I-[(D)Lys(Acrylamide)]-[bhPhe]-[Lys(Ahx_Palm)]-[(D)Lys]-C—NH2 [Compound 283]”, for which, under setting [1], the 50% inhibitory concentration (IC50) is 2.2 nM.

In the case of “Isovaleric Acid-E-T-H-[Dpa]-P—C—I-[Lys(1PEG2_1PEG2_1PEG2_C18_Diacid)]-[bhPhe]-[(D)Lys]-C—NH2 [Compound 254]”, under setting [1], the IC50 worked out at 23.2 nM.

Regarding “Isovaleric Acid-E-T-H-[Dpa]-P—C—I-[Lys(1PEG2_1PEG2_Ahx_C18_Diacid)]-[bhPhe]-[(D)Lys]-[Pen]-NH2 [Compound 280]”, under setting [1], the IC50 amounted to 26.4 nM.

In the case of “Isovaleric Acid-E-T-H-[Dpa]-P—C—I-[Lys(1PEG2_1PEG2_IsoGlu_C18_Diacid)]-[bhPhe]-[(D)Lys]-[Pen]-NH2 [Compound 281]”, under setting [1], the 50% inhibitory concentration (IC50) was 86 nM.

“Isovaleric Acid-E-T-H-[Dpa]-P—C—I-[Lys(1PEG8_IsoGlu_C18_Diacid)]-[bhPhe]-[(D)Lys]-C—NH2 [Compound 238]”: under setting [1], the IC50 was determined as 46.1 nM.

Turning to “Isovaleric Acid-E-T-H-[Dpa]-P—C—I-[Lys(PEG4_PEG4_IsoGlu_C18_Diacid)]-[bhF]-[(D)Lys]-C—NH2 [Compound 237]”, the IC50 under setting [1] came to 98.5 nM.

With “Isovaleric Acid-E-T-H-[Dpa]-P—C—I-[Lys(PEG12_C18 acid)]-[bhPhe]-[(D)Lys]-C—NH2 [Compound 306]”, the concentration for half-maximal inhibition (IC50) under setting [1] was 0.99 nM.

For the substance “Isovaleric Acid-E-T-H-[Dpa]-P—C—I-[Lys(PEG12_C18_Diacid)]-[bhPhe]-[(D)Lys]-Abu-NH2 [Compound 308]”, the IC50 under setting [1] was determined as 281 nM.

On to “Isovaleric Acid-E-T-H-[Dpa]-P—C—I-[Lys(PEG12_C18_Diacid)]-[bhPhe]-[(D)Lys]-[Pen]-NH2 [Compound 315]”, for which, under setting [1], the IC50 stood at 29 nM.

In the case of “Isovaleric Acid-E-T-H-[Dpa]-P—C—I-[Lys(PEG12_IsoGlu_C18_Diacid)]-[bhPhe]-[(D)Lys(PEG11_OMe)]—C—NH2 [Compound 292]”, the concentration for half-maximal inhibition (IC50) under setting [1] is 628 nM.

Take “Isovaleric Acid-E-T-H-[Phe(2,3-diF]-P—C—I-[Lys(1PEG2_1PEG2_IsoGlu_C18_Diacid)]-[bhPhe]-[(D)Lys]-C—NH2 [Compound 271]”: the IC50 under setting [1] is 112 nM.

On to “Isovaleric Acid-E-T-H—F—P-[Cys]-I-Z_minus-F-E-P-R-S—K-G-[Cys]-K—NH2 [Compound 101]”, for which, under setting [1], the 50% inhibitory concentration (IC50) is 6.87 nM.

Take “Isovaleric Acid-E-T-H—F—P—C—I-[Lys(1PEG2_1PEG2_Ahx_C18_Diacid)]-F-E-P—R—S—K-G-C—K—NH2 [Compound 221]”: the IC50 under setting [1] worked out at 62.3 nM.

In the case of “Isovaleric Acid-E-T-H—F—P—C—I-[Lys(1PEG2_1PEG2_IsoGlu_C18_Diacid)]-F-E-P—R—S-G-C—NH2 [Compound 210]”, the IC50 under setting [1] was found to be 627 nM.

Take “Isovaleric Acid-E-T-H—F—P—C—I-[Lys(1PEG2_1PEG2_IsoGlu_C18_Diacid)]-F-E-P—R—S—K-G-C—K—NH2 [Compound 220]”: under setting [1], the 50% inhibitory concentration (IC50) was 298 nM.

On to “Isovaleric Acid-E-T-H—F—P—C—I-[Lys(1PEG2_1PEG2_IsoGlu_C18_Diacid)]-F-E-P—R—S—K-G-C—NH2 [Compound 206]”, for which the IC50 under setting [1] was found to be 368 nM.

Consider “Isovaleric Acid-E-T-H—F—P—C—I-[Lys(Ahx_Palm)]-F-E-P—R—S—K-G-C—K—NH2 [Compound 223]”, for which the IC50 under setting [1] stood at 1.8 nM.

Take “Isovaleric Acid-E-T-H—F—P—C—I-[Lys(IsoGlu_C18_Diacid)]-F-E-P—R—S—K-G-C—K—NH2 [Compound 222]”: the 50% inhibitory concentration (IC50) under setting [1] is greater than 1000 nM.

As for “Isovaleric Acid-E-T-H—F—P—C—I-[Lys(IsoGlu_Palm)]-F-E-P-[(D)Arg]-S—K-G-C—K—NH2 [Compound 227]”, under setting [1], the IC50 worked out at 18.1 nM.

On to “Isovaleric Acid-E-T-H—F—P—C—I-[Lys(IsoGlu_Palm)]-F-E-P-[Lys(Ac)]-S-G-C—NH2 [Compound 230]”, for which the IC50 under setting [1] was 96.8 nM.

In the case of “Isovaleric Acid-E-T-H—F—P—C—I-[Lys(IsoGlu_Palm)]-F-E-P-[Lys(Ac)]-S—K-G-[Pen]-K—NH2 [Compound 229]”, under setting [1], the IC50 stood at 50.7 nM.

As to “Isovaleric Acid-E-T-H—F—P—C—I-[Lys(IsoGlu_Palm)]-F-E-P—R-S-G-C—NH2 [Compound 226]”, the IC50 under setting [1] was 37.2 nM.

For the substance “Isovaleric Acid-E-T-H—F—P—C—I-[Lys(IsoGlu_Palm)]-F-E-P—R—S—K-G-[Pen]-K—NH2 [Compound 224]”, the concentration for half-maximal inhibition (IC50) under setting [1] came out at 17 nM.

As to “Isovaleric Acid-E-T-H—F—P—C—I-[Lys(PEG12_Ahx_C18 acid)]-F-E-P—R—S—K-G-[Pen]-K—NH2 [Compound 304]”, under setting [1], the concentration for half-maximal inhibition (IC50) was determined as 1.58 nM.

Consider “Isovaleric Acid-E-T-H—F—P—C—I-[Lys(PEG12_Ahx_C18_Diacid)]-F-E-P—R—S—K-G-[Pen]-K—NH2 [Compound 302]”, for which the 50% inhibitory concentration (IC50) under setting [1] was determined as 395 nM.

“Isovaleric Acid-E-T-H—F—P—C—I-[Lys(PEG12_C18 acid)]-F-E-P—R—S—K-G-[Pen]-K—NH2 [Compound 303]”: under setting [1], the IC50 is 1.54 nM.

For “Isovaleric Acid-E-T-H—F—P—C—I-[Lys(PEG12_C18_Diacid)]-F-E-P—R—S—K-G-[Pen]-K—NH2 [Compound 301]”, under setting [1], the half-maximal inhibitory concentration (IC50) was determined as 343 nM.

Turning to “Isovaleric Acid-Gla-T-H-[Dpa]-P—C—I-[Lys(1PEG2_1PEG2_IsoGlu_C18_Diacid)]-[bhPhe]-[(D)Lys]-C—NH2 [Compound 268]”, the IC50 under setting [1] came out at 461 nM.

Regarding “Isovaleric Acid-[(D)Glu]-T-H-[Dpa]-P—C—I-[Lys(1PEG2_1PEG2_Ahx_C18_Diacid)]-[bhPhe]-[(D)Lys]-C—NH2 [Compound 298]”, the half-maximal inhibitory concentration (IC50) under setting [1] turned out to be 54.8 nM.

Turning to “Isovaleric Acid-[Glu_OMe]-T-H-[Dpa]-P—C—I-[Lys(1PEG2_1PEG2_Ahx_C18_Diacid)]-[bhPhe]-[(D)Lys]-C—NH2 [Compound 277]”, under setting [1], the concentration for half-maximal inhibition (IC50) was determined as 36.4 nM.

“Isovaleric Acid-bhE-T-H-[Dpa]-P—C—I-[Lys(1PEG2_1PEG2_IsoGlu_C18_Diacid)]-[bhPhe]-[(D)Lys]-C—NH2 [Compound 267]”: the IC50 under setting [1] came out at 566 nM.

In the case of “[Isovaleric Acid]-E-A—H-[Dpa]-P—C—I-[(D)Lys]-[bhPhe]-[Lys(Ahx_Palm)]-[(D)Lys]-C—NH2 [Compound 612]”, the IC50 under setting [2] was 11 to 100 nM.

Take “[Isovaleric Acid]-E-S-H-[Dpa]-P—C—I-[(D)Lys]-[bhPhe]-[Lys(PEG12_Palm)]-R—C—NH2 [Compound 605]”: the IC50 under setting [2] lay in the range of 11 to 100 nM.
